Assay results published in article PMC10310055.

Columns and labels:
Assay in all cases: purified protein
Settings in all cases: pH 8.3
[1] = system: CCCCCCCCCC(=O)CC(=O)N[C@H]1CCOC1=O
[2] = system: CCCCCCCC(=O)CC(=O)N[C@H]1CCOC1=O
[3] = system: CCCCCC(=O)CC(=O)N[C@H]1CCOC1=O
CCCCCC(=O)N[C@H]1CCOC1=O = system: CCCCCC(=O)N[C@H]1CCOC1=O
CCCC(=O)N[C@H]1CCOC1=O = system: CCCC(=O)N[C@H]1CCOC1=O

SsoPox V82I (Saccharolobus solfataricus P2; G264A/V82I)
Km [1]: 95.4 ± 13 µM
kcat/Km [1]: 4180 M⁻¹ s⁻¹
Km [2]: 617.5 ± 133 µM
kcat/Km [2]: 3350 M⁻¹ s⁻¹

SsoPox V82I (Saccharolobus solfataricus P2; R277A/V82I)
Km [1]: 69.03 ± 7 µM
kcat/Km [1]: 11800 M⁻¹ s⁻¹
Km [3]: 168.7 ± 34 µM
kcat/Km [3]: 12200 M⁻¹ s⁻¹
Km [2]: 91.5 ± 8 µM
kcat/Km [2]: 56600 M⁻¹ s⁻¹

SsoPox V82I (Saccharolobus solfataricus P2; S279A/V82I)
Km [1]: 73.67 ± 18 µM
kcat/Km [1]: 27600 M⁻¹ s⁻¹
Km [3]: 160.4 ± 31 µM
kcat/Km [3]: 17800 M⁻¹ s⁻¹
Km [2]: 112 ± 16 µM
kcat/Km [2]: 84600 M⁻¹ s⁻¹

SsoPox V82I (Saccharolobus solfataricus P2; V82I)
Km [1]: 127 ± 26 µM
kcat/Km [1]: 5010 M⁻¹ s⁻¹
Km (CCCCCC(=O)N[C@H]1CCOC1=O): 373 ± 32 µM
kcat/Km (CCCCCC(=O)N[C@H]1CCOC1=O): 2150 M⁻¹ s⁻¹
Km [3]: 504.9 ± 51 µM
kcat/Km [3]: 1390 M⁻¹ s⁻¹
Km (CCCC(=O)N[C@H]1CCOC1=O): 1240 ± 136 µM
kcat/Km (CCCC(=O)N[C@H]1CCOC1=O): 102 M⁻¹ s⁻¹
Km [2]: 197.8 ± 24 µM
kcat/Km [2]: 12400 M⁻¹ s⁻¹

SsoPox V82I (Saccharolobus solfataricus P2; V82I/W263A)
Km [1]: 106.7 ± 19 µM
kcat/Km [1]: 224000 M⁻¹ s⁻¹
Km [2]: 297.6 ± 29 µM
kcat/Km [2]: 24500 M⁻¹ s⁻¹
